The results in this text go back to patent US6713443B1, “Compounds which modify serotoninergic transmission, diagnostic and therapeutic applications” (Institut Pasteur, priority 1993, dated 2004).

In test [1] the test system is 5-HT1B/D receptors. Description: Relative activity at 1 nM, [3H]5-HT binding. The note with it: 1 nM peptide or amino acid, 30 nM [3H]5-HT. As for the experimental part:
(§1) The binding experiments were performed as described above. […] Each value corresponds to the mean ± the standard deviation of three independent tests performed in quintuplicate.

Test [2] deals with 5-HT1B/D receptors. Nature of the test: Relative activity at 1 nM, [125I]cyanopindolol binding. The note with it: 1 nM peptide or amino acid, 0.3 nM [125I]cyanopindolol. As for the experimental part: as §1

With LEU-ALA, the “RELATIVE POTENCY, Receptors 5-HT1B/D ([3H]5-HT)” value in the test on 5-HT1B/D receptors [1] is given as 1 ± 2 percentage of the LSAL effect. Moreover, the “RELATIVE POTENCY, Receptors 5-HT1B/D ([125I]-cyanopindolol)” value in the test with 5-HT1B/D receptors [2] is 1.7 ± 1.6 percentage of the LSAL effect.

In the case of SER-LEU (SL), the “RELATIVE POTENCY, Receptors 5-HT1B/D ([3H]5-HT)” value in the test on 5-HT1B/D receptors [1] is reported as 4 ± 4 percentage of the LSAL effect.
